Experimental data: patent US20080027139A1, “Use of Alpha-Ketoglutarate and Related Compounds” (priority 2004, published 2008)
Where two headings read alike, the source gives them in different places. Marks after values point to notes of the source that are not given here.

Tests used:
[1] = test system: sham-operated (SHO) and ovariectomized (OVX) Wistar female rats
Description: A study was conducted on Wistar female rats kept in standard weather conditions. […] Afterwards the female rates were randomly divided into 2 groups: ovariectomy were performed in all animals in group one (OVX) and placebo operation were done in the second group (SHO). Surgical procedures were performed under general anesthesia (rometare, ketamine and atropine in doses 2, 10 and 0.05 mg/kg of bodily weight respectively.
Studies were conducted on the animals from the two groups: females received experimental solutions from the seventh day following the operation (simulation of the first period of the lack of activity of the ovarian hormones) (Experiment I 1), females aged 7 months with a 5 month period in which there was no activity of hormonal ovaries (simulation of the period with a prolonged absence of the activity of ovarian hormones) (Experiment I 2) (Tab. 2).
In each of Experiments I1 and I2 40 animals was used for each experimental doses making a total of 240 animals.
Blood samples were collected immediately after slaughter, and the plasma removed by centrifugation was stored in a safe place for further biochemical analyses.
The entire cholesterol concentration was determined by means of commonly available analytical equipment using the spectrophotometric method.

[2] = test system: volunteers with a relatively high level of cholesterol
Description: The experiment lasted for the total of 42 days. […] During the experiment no quantitative or qualitative restrictions regarding the diet were introduced. In the period from day 1 to day 28 the patients' lipid profile was checked every seven days in order to determine the concentration of cholesterol, fractions of LDL and HDL and triglycerides. […] Subsequent measurements of the lipid profile were taken on 42nd day of the experiment.

[3] = test system: Wistar rats with diet-induced hypercholesterolaemia; conditions: day 120; for HDL level in the blood serum / LDL level in the blood serum / Total cholesterol level in the blood serum / Triglycerides level in the blood serum: cholesterol/lard diet, mean ± S.E.M
[4] = AKG doses 0.1 and 1 from day 61 for 60 days, females and males, p<0.05
[5] = female rats, AKG dose 0.1 from day 61 for 60 days
[6] = female rats, AKG dose 1.0 from day 61 for 60 days
[7] = male rats, AKG dose 0.1 from day 61 for 60 days
[8] = male rats, AKG dose 1.0 from day 61 for 60 days

O=C(O)CCC(=O)C(=O)O [AKG, alpha-ketoglutaric acid]
cholesterol concentration in blood serum ([1]; OVX female rats, AKG dose 0.01, 150 days after surgery + 60 days of AKG treatment, mean ± S.E.M, p<0.05 vs OVX + placebo): 1.68 ± 0.09^B mmol/l | cholesterol concentration in blood serum ([1]; OVX female rats, AKG dose 0.01 per os, 7 days after surgery + 60 days of AKG treatment, mean ± S.E.M, p<0.05 vs OVX + placebo): 1.46 ± 0.08^b mmol/l | cholesterol concentration in blood serum ([1]; OVX female rats, AKG dose 0.1, 150 days after surgery + 60 days of AKG treatment, mean ± S.E.M, p<0.01 vs OVX + placebo): 1.59 ± 0.06^B mmol/l | cholesterol concentration in blood serum ([1]; OVX female rats, AKG dose 1.0, 7 days after surgery + 60 days of AKG treatment): 1.44 ± 0.11 mmol/L | cholesterol concentration in blood serum ([1]; OVX female rats, AKG dose 1.0, 90 days after surgery + 60 days of AKG treatment, p<0.001 vs placebo): 0.49 ± 0.09^B* mmol/l | cholesterol concentration in blood serum ([1]; OVX female rats, title: dose 0.1 of AKG, column head: (dose 0.01), 7 days after surgery + 60 days of AKG treatment): 1.47 ± 0.08 mmol/L | cholesterol concentration in blood serum ([1]; SHO female rats, AKG dose 0.01 (basic solution 146 g AKG/10 l thinned one hundredfold) per os, 7 days after surgery + 60 days of AKG treatment, mean ± S.E.M): 1.50 ± 0.19 mmol/L | cholesterol concentration in blood serum ([1]; SHO female rats, AKG dose 0.01, 150 days after surgery + 60 days of AKG treatment, mean ± S.E.M): 1.59 ± 0.06^a mmol/l | cholesterol concentration in blood serum ([1]; SHO female rats, AKG dose 0.1 (basic solution thinned tenfold), 150 days after surgery + 60 days of AKG treatment, mean ± S.E.M): 1.60 ± 0.08^a mmol/l | cholesterol concentration in blood serum ([1]; SHO female rats, AKG dose 1.0 (basic solution 146 g AKG/10 l), 7 days after surgery + 60 days of AKG treatment): 1.28 ± 0.11 mmol/L | cholesterol concentration in blood serum ([1]; SHO female rats, AKG dose 1.0, 90 days after surgery + 60 days of AKG treatment, p<0.05 vs placebo): 0.76 ± 0.06^b mmol/l | cholesterol concentration in blood serum ([1]; SHO female rats, title: dose 0.1 of AKG, column head: (dose 0.01), 7 days after surgery + 60 days of AKG treatment): 1.45 ± 0.19 mmol/L | LDL level ([2]; Volunteer 1, 1st week, chewable tablets of 1.28 g calcium alpha-ketoglutarate (1 g AKG), two tablets three times a day, day 1-28): 110 mg/dL | LDL level ([2]; Volunteer 1, 2nd week, calcium alpha-ketoglutarate tablets (1 g AKG), two tablets three times a day): 94 mg/dL | LDL level ([2]; Volunteer 1, 3rd week, calcium alpha-ketoglutarate tablets (1 g AKG), two tablets three times a day): 75 mg/dL | LDL level ([2]; Volunteer 1, 4th week, calcium alpha-ketoglutarate tablets (1 g AKG), two tablets three times a day): 57 mg/dL | LDL level ([2]; Volunteer 1, 6th week, after 2 weeks without AKG): 88 mg/dL | LDL level ([2]; Volunteer 2, 1st week, chewable tablets of 1.28 g calcium alpha-ketoglutarate (1 g AKG), two tablets three times a day, day 1-28): 131 mg/dL | LDL level ([2]; Volunteer 2, 2nd week, calcium alpha-ketoglutarate tablets (1 g AKG), two tablets three times a day): 148 mg/dL | LDL level ([2]; Volunteer 2, 3rd week, calcium alpha-ketoglutarate tablets (1 g AKG), two tablets three times a day): 119 mg/dL | LDL level ([2]; Volunteer 2, 4th week, calcium alpha-ketoglutarate tablets (1 g AKG), two tablets three times a day): 110 mg/dL | LDL level ([2]; Volunteer 2, 6th week, after 2 weeks without AKG): 131 mg/dL | effect on concentration of LDL fraction (in words) ([2]; two volunteers, after 28 days of tablets containing 1 g of AKG, 2 tablets 3 times a day): decrease | change of concentration of LDL fraction after stopping (in words) ([2]; two volunteers, after a 14 day break in administering the preparation): increased | effect on LDL fraction in blood plasma (in words) [3, 4]: statistically significant decrease | effect on entire cholesterol in blood plasma (in words) [3, 4]: statistically significant decrease | effect on triglycerides in blood plasma (in words) [3, 4]: statistically significant decrease | HDL level in the blood serum [3, 5]: 39.4 ± 0.68^ mg/dl | LDL level in the blood serum [3, 5]: 0.20 ± 0.015^b mg/dl | Total cholesterol level in the blood serum [3, 5]: 77.2 ± 3.14^b mg/dl | Triglycerides level in the blood serum [3, 5]: 111.7 ± 1.85^b mg/dl | HDL level in the blood serum [3, 6]: 40.2 ± 1.59^ mg/dl | LDL level in the blood serum [3, 6]: 0.20 ± 0.019^b mg/dl | Total cholesterol level in the blood serum [3, 6]: 69.2 ± 2.5^b mg/dl | Triglycerides level in the blood serum [3, 6]: 142.0 ± 2.39^c mg/dl | HDL level in the blood serum [3, 7]: 39.0 ± 1.67^b mg/dl | LDL level in the blood serum [3, 7]: 5.4 ± 2.48^b mg/dl | Total cholesterol level in the blood serum [3, 7]: 65.0 ± 2.28^b mg/dl | Triglycerides level in the blood serum [3, 7]: 102.2 ± 10.89^b mg/dl | HDL level in the blood serum [3, 8]: 35.6 ± 2.32^b mg/dl | LDL level in the blood serum [3, 8]: 10.2 ± 2.31^b mg/dl | Total cholesterol level in the blood serum [3, 8]: 69.6 ± 2.73^b mg/dl | Triglycerides level in the blood serum [3, 8]: 119.6 ± 17.35^b mg/dl
